From US8795659B2 (priority 2004, dated 2014)

How the values were obtained:
Lewis Lung Carcinoma = test: Response of s.c. Lewis lung carcinoma in mice (Table 3); conditions: for Highest non-toxic dosage: IP
[1] = Sub-acute IV (3-day) dosing of IPM in dogs; type: in vivo; conditions: iv daily × 3 days

SMILES	% ILS (excluding survivors) (Lewis Lung Carcinoma; 30 mg kg^-1/dose IP, Day 2 Q5 min × 7) [%]	% ILS (excluding survivors) (Lewis Lung Carcinoma; 200 mg kg^-1/dose IP, Day 2 Single dose) [%]	Highest non-toxic dosage (Lewis Lung Carcinoma; Day 2 Q5 min × 7) [mg kg^-1/dose]	Highest non-toxic dosage (Lewis Lung Carcinoma; Day 2 Single dose) [mg kg^-1/dose]	Safety LD50 (mg/kg): dose with 100% survival [1] [mg/kg/day]
NP(=O)(O)N(CCCl)CCCl	17	15	30	200	–
O=P(O)(NCCCl)NCCCl	–	–	–	–	1 to 5
